One test concerns the target lysosomal GCase (Homo sapiens (Human), UniProt P04062). The test can be described thus: In situ lysosomal GCase inhibition and washout assay in fibroblasts from a normal subject. In kind it is cell-based. The settings on record: 16-24 hours with compound, PFBFDβGlu substrate. The procedure:
The effect of the novel compounds of the present invention on lysosomal GCase activity was assayed in situ using fibroblasts established from a normal subject. Cells seeded in 48-well plates were incubated with the indicated concentrations of compound for 16-24 hours. For the dose-response assays, cells were incubated with the in situ substrate 5-(pentafluorobenzoylamino)fluorescein di-β-D-glucopyranoside (PFBFDβGlu) for 1 hour and subsequently lysed to determine the extent of substrate hydrolysis in the presence of compound. […] Inhibition was determined as the ratio of activity in the presence of compound to that in the absence of compound. […] Cells were washed extensively and incubated in drug-free medium to allow net compound efflux from cells. Cells were then tested for lysosomal GCase activity at 2 hour intervals over a total period of 8 hours following compound removal. The increase in activity over time was fitted with a single exponential function to determine the compound's washout time.

Protein sequences, listed by entry. Tags and fused reporters are not part of them. Residues count along the entry.
UniProt P04062, 40-536: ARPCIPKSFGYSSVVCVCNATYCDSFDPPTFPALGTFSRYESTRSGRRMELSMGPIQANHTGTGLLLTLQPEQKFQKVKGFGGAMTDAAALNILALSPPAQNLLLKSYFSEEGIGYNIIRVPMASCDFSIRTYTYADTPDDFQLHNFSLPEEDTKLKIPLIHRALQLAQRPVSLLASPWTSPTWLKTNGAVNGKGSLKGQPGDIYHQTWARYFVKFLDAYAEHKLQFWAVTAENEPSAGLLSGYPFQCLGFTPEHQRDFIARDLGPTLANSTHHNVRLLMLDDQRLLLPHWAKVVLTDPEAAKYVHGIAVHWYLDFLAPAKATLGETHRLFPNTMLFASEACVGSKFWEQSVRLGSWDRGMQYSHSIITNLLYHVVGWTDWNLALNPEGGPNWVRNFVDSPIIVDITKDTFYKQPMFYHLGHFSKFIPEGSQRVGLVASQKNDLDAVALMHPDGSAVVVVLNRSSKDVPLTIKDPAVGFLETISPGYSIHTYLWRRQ

The target in the next test is GCase (Homo sapiens (Human), UniProt P04062). The test can be described thus: GCase activity enhancement (EC50, Emax) of Table 2B. It is filed as cell-based.

As usually defined, the IC50 is the concentration that inhibits the measured activity by half. By EC50 is commonly meant the concentration that produces a half-maximal response. For `Cl.O[C@H]1[C@H](O)CNC[C@@H]1C(F)F` [Cmpd 6, (3R,4R,5S)-5-(Difluoromethyl)piperidine 3,4-diol Hydrochloride], the IC50 on lysosomal GCase worked out at 408 ± 46 nM. The EC50 on GCase was 18 ± 8 nM.

Source of the values: US8604206B2, “Compositions for preventing and/or treating degenerative disorders of the central nervous system” (Amicus Therapeutics, Inc., priority 2009, dated 2013).
